The chains behind the UniProt entries cited, without tags or fusion partners. Where a name states a change or a piece, a line headed by the entry shows the natural chain unless it says otherwise. Residues count along the entry.
UniProt P42336, whole entry: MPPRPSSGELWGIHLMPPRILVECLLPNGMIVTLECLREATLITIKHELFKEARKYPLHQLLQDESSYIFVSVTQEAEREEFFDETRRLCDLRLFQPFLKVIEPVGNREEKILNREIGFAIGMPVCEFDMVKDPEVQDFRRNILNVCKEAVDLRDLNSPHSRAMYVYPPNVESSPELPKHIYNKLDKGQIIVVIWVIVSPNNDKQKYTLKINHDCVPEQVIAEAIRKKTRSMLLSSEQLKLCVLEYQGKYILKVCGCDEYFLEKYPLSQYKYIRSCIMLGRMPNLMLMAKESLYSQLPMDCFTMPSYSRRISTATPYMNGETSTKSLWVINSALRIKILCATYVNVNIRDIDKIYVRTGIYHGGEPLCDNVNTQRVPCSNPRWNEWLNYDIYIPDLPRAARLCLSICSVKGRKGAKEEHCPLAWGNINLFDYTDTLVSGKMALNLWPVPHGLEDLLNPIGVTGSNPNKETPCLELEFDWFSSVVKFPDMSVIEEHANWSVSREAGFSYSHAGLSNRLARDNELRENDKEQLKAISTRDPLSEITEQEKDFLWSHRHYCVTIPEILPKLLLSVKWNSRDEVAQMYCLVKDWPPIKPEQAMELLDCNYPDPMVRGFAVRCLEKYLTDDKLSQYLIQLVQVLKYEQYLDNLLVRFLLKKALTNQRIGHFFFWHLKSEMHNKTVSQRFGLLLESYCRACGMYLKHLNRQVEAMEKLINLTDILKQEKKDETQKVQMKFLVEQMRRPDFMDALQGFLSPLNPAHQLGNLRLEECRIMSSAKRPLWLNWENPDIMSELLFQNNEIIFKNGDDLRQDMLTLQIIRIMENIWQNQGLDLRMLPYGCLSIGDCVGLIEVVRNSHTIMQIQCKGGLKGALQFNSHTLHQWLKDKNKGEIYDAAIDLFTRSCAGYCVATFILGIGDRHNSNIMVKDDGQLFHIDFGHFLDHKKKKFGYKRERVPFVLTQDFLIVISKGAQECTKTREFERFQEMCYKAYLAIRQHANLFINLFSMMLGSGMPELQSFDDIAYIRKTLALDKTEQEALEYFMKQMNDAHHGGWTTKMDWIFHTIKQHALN
UniProt P42336, whole entry H1047R: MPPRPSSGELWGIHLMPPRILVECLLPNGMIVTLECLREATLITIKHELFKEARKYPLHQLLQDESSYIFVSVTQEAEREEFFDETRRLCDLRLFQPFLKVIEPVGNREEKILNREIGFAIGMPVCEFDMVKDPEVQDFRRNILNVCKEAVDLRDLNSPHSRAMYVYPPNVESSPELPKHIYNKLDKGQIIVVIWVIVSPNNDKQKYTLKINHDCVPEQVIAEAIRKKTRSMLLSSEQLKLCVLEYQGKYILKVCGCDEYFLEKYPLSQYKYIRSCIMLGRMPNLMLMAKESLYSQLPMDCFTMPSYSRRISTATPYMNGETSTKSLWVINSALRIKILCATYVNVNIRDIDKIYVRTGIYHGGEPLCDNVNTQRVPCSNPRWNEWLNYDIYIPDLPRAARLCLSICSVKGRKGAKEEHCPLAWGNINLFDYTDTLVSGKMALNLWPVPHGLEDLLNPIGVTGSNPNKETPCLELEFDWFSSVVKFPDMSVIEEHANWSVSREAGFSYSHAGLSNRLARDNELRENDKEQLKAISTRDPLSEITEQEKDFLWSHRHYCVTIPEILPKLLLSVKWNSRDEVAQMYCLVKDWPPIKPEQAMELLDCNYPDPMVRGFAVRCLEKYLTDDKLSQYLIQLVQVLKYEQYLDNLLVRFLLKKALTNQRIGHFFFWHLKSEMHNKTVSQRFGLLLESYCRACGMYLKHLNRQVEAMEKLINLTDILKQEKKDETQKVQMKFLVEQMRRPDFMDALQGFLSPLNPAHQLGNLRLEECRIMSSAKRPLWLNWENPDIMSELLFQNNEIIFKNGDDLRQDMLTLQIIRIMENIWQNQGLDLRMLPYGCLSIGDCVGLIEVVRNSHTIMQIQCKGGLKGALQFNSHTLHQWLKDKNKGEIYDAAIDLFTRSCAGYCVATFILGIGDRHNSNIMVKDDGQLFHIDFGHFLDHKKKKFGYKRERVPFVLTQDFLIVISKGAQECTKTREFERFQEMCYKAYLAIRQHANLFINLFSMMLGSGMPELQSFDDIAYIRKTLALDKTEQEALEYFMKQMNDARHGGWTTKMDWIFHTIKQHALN
UniProt P27986, 2-724 partner limits assumed: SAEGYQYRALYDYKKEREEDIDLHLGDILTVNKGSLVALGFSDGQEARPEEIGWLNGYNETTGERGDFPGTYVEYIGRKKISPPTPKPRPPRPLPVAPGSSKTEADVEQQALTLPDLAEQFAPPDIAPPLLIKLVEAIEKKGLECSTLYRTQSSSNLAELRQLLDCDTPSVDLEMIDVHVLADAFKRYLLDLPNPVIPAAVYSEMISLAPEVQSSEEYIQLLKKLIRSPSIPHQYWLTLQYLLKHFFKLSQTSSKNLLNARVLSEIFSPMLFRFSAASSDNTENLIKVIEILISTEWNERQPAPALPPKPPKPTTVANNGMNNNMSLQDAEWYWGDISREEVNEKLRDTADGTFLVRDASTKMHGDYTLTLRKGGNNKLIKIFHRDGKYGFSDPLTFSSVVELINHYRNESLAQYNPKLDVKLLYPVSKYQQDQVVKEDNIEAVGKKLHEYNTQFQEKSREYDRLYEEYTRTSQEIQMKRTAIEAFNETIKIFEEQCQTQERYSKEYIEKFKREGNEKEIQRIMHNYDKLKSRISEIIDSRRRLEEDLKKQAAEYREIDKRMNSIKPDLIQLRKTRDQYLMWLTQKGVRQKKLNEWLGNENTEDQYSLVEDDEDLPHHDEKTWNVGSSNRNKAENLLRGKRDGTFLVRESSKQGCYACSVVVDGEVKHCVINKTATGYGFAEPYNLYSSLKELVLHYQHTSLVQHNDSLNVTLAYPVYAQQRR

In patent US12281122B1, “PI3K inhibitors” (Cogent Biosciences, Inc., priority 2023, dated 2025):

Assays:
PI3Kα = PI3Kα (Homo sapiens, UniProt P42336); experiment: PI3Kα enzyme assay (Transcreener ADP2 TR-FRET Red Assay); settings: read-out: PI3Kα WT IC50; purified recombinant full-length protein; 2 hours pre-incubation with compound
Description: (§1) Activity against PI3Kα and PI3Kα H1047R enzymes were determined in biochemical assays using purified recombinant full-length proteins with the Transcreener ADP^2 TR-FRET Red Assay from Bellbrook Labs. (Catalogue number 3011-10K). Test compounds were dissolved in DMSO and were tested in 11 point 1:3 serial dilutions, typical final concentration range from 50,000 nM to 0.85 nM. Enzymes were pre-incubated with compounds for 2 hours at room temperature prior to initiating the reactions. Assays were initiated with a 2×ATP/PI(4,5)P2 diC8 substrate mixture. After 60 minutes at room temperature, the reactions were quenched with detection reagent and incubated for an additional 60 minutes at room temperature. The plates were read using a multimode reader and the emission ratio of 665 nm to 615 nm was determined. This ratio was converted to percent of control (POC). [1-(high control-sample signal)/(high control-low control)]*100. Wells without compound were used to determine high control values and wells without enzyme were used to determine low control values. The POC values were fit using a four-parameter logistic model and the value where the fit curve was equal to 50 POC was reported as the IC50 using the Signals VitroVivo software package (PerkinElmer). Final assay conditions were: 40 mM HEPES pH 7.5, 20 mM NaCl, 25 mM MgCl2, 0.01% Triton X-100. […]

PI3Kα H1047R = PI3Kα H1047R (Homo sapiens, UniProt P42336, H1047R); experiment: PI3Kα H1047R enzyme assay (Transcreener ADP2 TR-FRET Red Assay); settings: read-out: PI3Kα H1047R IC50; purified recombinant full-length protein; 2 hours pre-incubation with compound
Description: as §1

[1] = test system: T47D (PI3Kα-H1047R) cell line; experiment: HTRF phospho-AKT(S473) cell assay in T47D cells; settings: read-out: T47D IC50, 2 hours compound incubation
Description: (§2) Compounds in the present disclosure were tested in a cell based HTRF phospho-AKT(S473) (CisBio/Revvity) assay in human breast cancer cell lines as a measurement of PIK3CA activity through measuring AKT, a downstream effector. The activity of mutant PI3Kα-H1047R and PI3Kα-Wild Type was measured in the T47D (PI3Kα-H1047R) and SKBR3 (PI3Kα-Wild Type) cell lines, respectively. T47D cells were plated at 20,000 cells per well in 50 μL in RPMI medium supplemented with 10% FBS and 0.2 units/mL insulin, in 384 well plates. SKBR3 cells were plated at 25,000 cells per well in 50 μL in McCoy's 5A medium supplemented with 10% FBS, in 384 well plates. Cells were plated using a Combi Multidrop reagent dispenser (ThermoFisher), and placed in 5% CO2, 37° C. incubator overnight to adhere.
(§3) The next day, cells were treated with either compounds or vehicle (DMSO) in a 12-fold dose response curve of 1:3 dilutions, with 5 μM and 10 μM as the top concentrations for the T47D and SKBR3 cell lines, respectively. Compound treatment was facilitated via the D300e digital dispenser (Tecan), with a maximum DMSO concentration of 0.5%. Following compound addition, cell plates were incubated for 2 hours in 5% CO2, 37° C. incubator. […]
(§4) The following day, plates were centrifuged for 1 minute at 1000 rpm, and read on a PHERAstar plate reader. IC50 values were calculated using Spotfire software.

[2] = test system: SKBR3 (PI3Kα-Wild Type) cell line; experiment: HTRF phospho-AKT(S473) cell assay in SKBR3 cells; settings: read-out: SKBR3 IC50, 2 hours compound incubation, PDGF-BB stimulated
Description: as §2, §3, §4

IC50 (PI3Kα): > 1000 nM
IC50 (PI3Kα H1047R): > 1000 nM
IC50 [1]: 1000 to 5000 nM
IC50 [2]: > 5000 nM
SMILES: Cc1cc(C(C)Nc2ccccc2S(=O)(=O)NC(=O)C(F)F)c2nc(N3Cc4ccc(F)cc4C3)n(C)c(=O)c2c1 (single isomer, unassigned)
